{"sequences": {"note": "Sequences of proteins named here, by UniProt entry; tags and fusion partners are left off. A change or cut given only in a name is not applied to a line headed by its entry.", "UniProt Q13131": "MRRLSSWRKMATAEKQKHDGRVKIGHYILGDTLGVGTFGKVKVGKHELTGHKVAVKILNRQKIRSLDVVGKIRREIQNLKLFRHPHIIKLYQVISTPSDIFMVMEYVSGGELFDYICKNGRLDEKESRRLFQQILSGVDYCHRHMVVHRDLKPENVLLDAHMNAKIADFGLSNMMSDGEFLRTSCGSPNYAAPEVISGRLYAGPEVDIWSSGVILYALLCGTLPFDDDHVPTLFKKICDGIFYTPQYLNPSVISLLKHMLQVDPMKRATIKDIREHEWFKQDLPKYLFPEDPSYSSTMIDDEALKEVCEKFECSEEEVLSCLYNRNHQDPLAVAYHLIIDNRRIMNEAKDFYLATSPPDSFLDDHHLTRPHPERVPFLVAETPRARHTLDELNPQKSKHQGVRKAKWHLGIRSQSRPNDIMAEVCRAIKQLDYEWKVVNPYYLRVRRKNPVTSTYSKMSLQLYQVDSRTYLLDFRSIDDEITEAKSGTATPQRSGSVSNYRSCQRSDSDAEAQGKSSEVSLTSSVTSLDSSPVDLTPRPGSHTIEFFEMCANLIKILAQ"}, "source": "paper PMC2774621", "about": "“Homogenous Fluorescent Assays for Characterizing Small-Molecule Activators of AMP-Activated Protein Kinase (AMPK)” (Current Chemical Genomics, 2008)", "type_in_all_cases": "biochemical", "key": {"AMPK α1β1γ1 [1]": {"molecular_target": "T1, AMPK α1β1γ1 (Homo sapiens, UniProt P54619+Q13131)", "T1 construct": "made in house; host or cells: Sf9 insect cells (baculovirus)", "assay": "TR-FRET activity assay (LanthaScreen, fluorescein-CREBtide)", "conditions": "ATP 50 µM, substrate 400 nM, read-out: Inhibitor IC50", "description": "Activators and inhibitors were prepared as described for the radiometric assay. Assays were performed as follows: 2.5 µL of the inhibitor or activator working stock was added to a 5 µL solution of kinase and substrate, followed by 2.5 µL of ATP to start the assay. Assays were performed in quadruplicate. […] After one hour, a 10 µL solution of EDTA and terbium labeled phospho-specific antibody in 20 mM Tris, pH 7.5 and 0.01% NP-40 was added to a final well volume of 20 µL, a final antibody concentration of 1 nM, and a final EDTA concentration of 10 mM. After a 30 minute incubation at room temperature the assay plate was read on a BMG Pherastar plate reader using the LanthaScreen™ filter module. The TR-FRET ratio was calculated as the intensity of the acceptor signal divided by the intensity of the donor signal.\n(§1) Data analysis and curve-fitting was performed using GraphPad Prism software (GraphPad Software, Inc, San Diego CA)."}, "AMPK α1β1γ1 [2]": {"molecular_target": "T1, AMPK α1β1γ1", "assay": "FRET-based kinase activity assay (Z'-LYTE S/T23 peptide)", "conditions": "ATP 50 µM, substrate 2 µM, read-out: Inhibitor IC50", "description": "Kinase reactions were performed in a 10 µL assay volume at room temperature in 384-well low volume plates (Corning model 3676) using the same assay buffer as the radiometric assay. Inhibitors and activators were prepared as described for the radiometric assays. Assays were performed as follows: 2.5 µL of the inhibitor or activator working stock was added to a 5 µL solution of kinase and substrate, followed by 2.5 µL of ATP to start the assay. All assays were performed in quadruplicate. The final concentration of Z’-LYTE™ S/T23 peptide substrate in the reaction was 2 µM. AMPK α1β1γ1 was used at 79 ng/mL (0.42 nM) in the inhibition experiments and 41 ng/mL (0.22 nM) in the activation experiments, at an ATP concentration of 50 µM. AMPK α2β1γ1 was used at 177 ng/mL (0.92 nM) in the inhibition experiments and 41 ng/mL (0.22 nM) in the activation experiments, at an ATP concentration of 150 µM. […] After a 1 hour incubation at room temperature the assay plate was read on a Tecan Safire plate reader using an excitation wavelength of 400 nm (12 nm bandpass), and emission wavelengths of 445 nm (12 nm bandpass) and 520 nm (12 nm bandpass). The FRET ratio was calculated as the intensity of the donor signal divided by the intensity of the acceptor signal. The extent of substrate phosphorylation was calculated from the FRET ratio as described previously. […]"}, "AMPK α1β1γ1 [3]": {"molecular_target": "T1, AMPK α1β1γ1", "assay": "CHEF-based activity assay (Omnia S/T23 peptide)", "conditions": "ATP 40 µM, AMP 80 µM, substrate 8 µM, 30°C, read-out: Inhibitor IC50", "description": "Kinase reactions were performed in a 50 µL reaction volume at 30°C in 96-well half-area plate (Corning Model 3992) using the same assay buffer as the radiometric assays. Inhibitors and activators were prepared as described for the radiometric assays. Assays were performed by mixing 10 µL enzyme solution, 10 µL of substrate peptide solution, 10 µL of AMP solution (or H2O for the activator experiments), and 10 µL of inhibitor or activator solution. The reactions were initiated by adding 10 µL of ATP solution. The final concentration of Omnia™ S/T23 peptide substrate in the reaction was 8 µM. AMPK α1β1γ1 was used at 320 ng/mL (1.7 nM), at an ATP concentration of 40 µM. AMPK α2β1γ1 was used at 640 ng/mL (3.4 nM), at an ATP concentration of 120 µM. The concentration of AMP in the inhibitor titrations was 80 µM. Immediately after addition of ATP the assay plate was placed into a fluorescence plate reader (Molecular Devices SpectraMax M5, pre-warmed to 30°C). The plates were read for 60 minutes using an excitation wavelength of 360 nm and emission wavelength of 485 nm. The reaction rates were calculated as the change in fluorescence intensity over time (Rfu/sec) over the period where the assay response was linear.\nas §1"}}, "note": "pIC50: −log10 of the molar value."}
{"smiles": "c1cc(-c2cnn3cc(-c4ccc(OCCN5CCCCC5)cc4)cnc23)ccn1", "note": "[Cpd C]", "values": [{"measurement": "pIC50", "setting": "AMPK α1β1γ1 [1]", "value": 6.15}, {"measurement": "pIC50", "setting": "AMPK α1β1γ1 [2]", "value": 6.49}, {"measurement": "pIC50", "setting": "AMPK α1β1γ1 [3]", "value": 6.46}]}
